# Yeast mating assay B: variants of the scFv Ab-14

Binding partner: SARS-CoV-2 spike HR2 peptide, sequence PDVDLGDISGINAS.

Each scFv is VH, the linker GGGGSGGGGSGGGGS, VL, as in the parent Ab-14, and differs from it in the CDRs of the light chain only.
VH: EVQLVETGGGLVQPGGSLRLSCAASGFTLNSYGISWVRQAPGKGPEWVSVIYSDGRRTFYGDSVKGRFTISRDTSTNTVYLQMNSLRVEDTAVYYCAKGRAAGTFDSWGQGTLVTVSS
VL: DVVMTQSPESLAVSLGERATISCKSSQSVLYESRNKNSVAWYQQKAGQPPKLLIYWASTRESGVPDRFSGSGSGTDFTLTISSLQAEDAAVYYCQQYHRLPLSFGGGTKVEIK

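The starting antibody came from a phage panning campaign against this peptide. These sequences belong to a second round, designed from the earlier measurements on random variants of the parent. Group labels follow the data file (Ctrl: baseline library sampled from a position-specific scoring matrix, with some repeated check sequences; Rand: our label for a block that the file lists under HC and that is probably the random mutants of the ten best first-round binders; En: ensemble of fine-tuned language models; GP: Gaussian process model; HC: hill climbing; Gen: genetic algorithm; Gibbs: Gibbs sampling; a sequence that several methods proposed may carry one label only). The assay is AlphaSeq: two haploid yeast populations carry antibody and antigen on their surface. Binding brings cells together so that they mate, and sequencing counts the barcode pairs among the diploids. Scores were corrected for input abundance and mapped to Kd with protein pairs of known affinity run in the same pool. Mating was done six times.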

Each variant is given by its three light chain CDRs, as the data file delimits them; those of the parent are KSSQSVLYESRNKNSVA, WASTRES, QQYHRLPLS.
Values are log10 of the apparent Kd in nM; lower means stronger binding.
Averages over replicates are reported, and they cover detected replicates only.
A pair that was not seen in any replicate is written "no signal"; this usually means weak binding, but a binder can also be missed.
A sequence measured in both rounds can read differently, since the two assays cover different ranges.
Background: pairings of all light chain designs with three empty control strains gave a value in 4% of cases (median 2.64, 5th percentile 1.59). Values in that range, when seen in few replicates, are hard to tell from nonspecific mating. For each scFv, signals with the empty controls are counted beside the result.
The authors averaged sequences with at least three values out of six and counted those with two or fewer as poor binders.

CDR-L1,CDR-L2,CDR-L3,group,"log10 Kd (nM), mean",detected,empty controls
KIQQSVLYEDRQKNSVA,NASDRMS,QQYHRLPLS,GP_Gibbs,0.41,6/6,1/18
TLGQVTMVESYNKNSVA,QASTRLE,QDYHRLPLS,En_HC,2.09,2/6,0/18
IFSQSVMMGNMTRNSVA,QASERFN,QQYDRLPLI,En_HC,1.69,6/6,0/18
KVSQSVCYEDRVKNSVA,NASDRMS,QQYHRLPLS,GP_Gibbs,0.58,6/6,1/18
KSSQSVLYESRNKNSVA,WASKRES,QQYQRLPLS,Ctrl,2.13,2/6,0/18
KVSEFMRGLMGRKDSIA,DNETRGA,QQYDRLPLS,En_Gen,1.97,6/6,0/18
LLQQSELYESRNKNSVA,DASTREE,QAYHRLPLS,GP_Gibbs,0.42,6/6,1/18
KLSKSVLFESRNKNSVA,NASTRES,QQYHRLPLS,GP_HC,-0.12,6/6,1/18
KSSQSWLYESRNKNSVA,AASTRMS,QVYHHLPLS,Ctrl,1.27,6/6,2/18
KSSQSVYYSSRNKNSVA,WASIRES,QQYHCLPLS,Ctrl,2.38,2/6,2/18
IVSQLMLIGMHAKNSIA,EASTRLN,QQYERLPLF,En_Gen,no signal,0/6,0/18
MITAVMNAYNGSFSSVA,DKTISVN,QQYHRLPLS,En_Gibbs,1.38,6/6,0/18
KLGGESYNSTYEMDNVA,DVNTTYE,QHYSRLPLT,En_Gibbs,1.46,6/6,1/18
KLRQSTAYLSENKNSVA,ELTTRGN,QQYFRLPLS,En_HC,0.93,6/6,0/18
KLSQSVEYESRDKNSVA,DAQTRLS,QQYHRLPLS,GP_Gibbs,-0.18,6/6,0/18
KSSQSVLYESRNKNSVA,WASTRES,QQYHRLVLK,Ctrl,no signal,0/6,0/18
KSSQKTLYEGRNKNSVA,WASTREQ,QQYHRLPLS,Ctrl,1.60,1/6,0/18
KMSQSQLYETRNKNSVA,NASTRES,QQYHRLPLS,GP_Gibbs,-0.15,6/6,1/18
IVSQLMIWGMHYKNSIA,EAELRLN,QQYDRLPLF,En_Gen,0.91,4/6,0/18
KVSQSWLYESRNKNSVA,NASTRES,QDYHRLPLS,GP_Gen,-0.23,6/6,2/18
KCQQSQLYESRNKNAVA,NASLRED,QQYHRLPLS,GP_Gibbs,0.57,6/6,1/18
KSLQSVLYESRNKNSVA,NASTRED,QQYHQLPLS,GP_HC,0.50,6/6,1/18
KLQQSFLYESRNKNSVA,NASTREE,QQYHRLPLS,GP_Gen,-0.39,6/6,0/18
KVMQSHLYESRNKNSVA,NASTRES,QQYHRLPLS,GP_Gen,-0.17,6/6,0/18
NLSDGEMYENATRSNVA,NTSMRDF,QQYNRLPLD,En_Gibbs,1.51,6/6,1/18
MISNVMNTLSRQGNNVA,DLAERED,QQYFRLPLS,En_Gen,0.69,6/6,2/18
KQQQGMDYESRNKNSVA,DASLRES,QQYHRLPLS,GP_Gibbs,0.49,6/6,1/18
MIHESMGLMSHKHSSIA,DNSTRED,QQYDRLPLS,En_Gen,0.79,6/6,1/18
MFSQMWAIGNKVSNSVA,QASTRFN,QQYDRLPLI,En_Gen,1.44,6/6,1/18
HSSPSVLYESRNGNDEA,NASTRES,QQYHRLPLS,Rand,no signal,0/6,1/18

Continued, with the values leading:

"log10 Kd (nM), mean",detected,empty controls,CDR-L1,CDR-L2,CDR-L3,group
0.30,6/6,0/18,NISYEQALSTNSVNNVA,QASVRAP,QYYQRLPLC,En_Gibbs
0.80,6/6,0/18,KLSASMLYESRNKNSVA,NASTRES,QQYHRLPLS,GP_Gen
0.51,6/6,0/18,QLQLQPQTGLNAQHSIA,DVSEKDM,QQYARLPLH,En_Gibbs
-0.14,6/6,0/18,KFDQEWLYESRNKNSVA,MASQRCS,QQYHRLPLS,GP_Gibbs
no signal,0/6,0/18,KLSQSGLYESRNKNNVA,NASTRES,QQYHRLPLS,GP_Gen
-0.42,6/6,2/18,KLPQSWLYESRNKNSVA,NASQRES,QQYHRLPLS,GP_Gen
1.21,6/6,2/18,KLSKMVMYGSRNKNSVA,SASTREE,QQYHRLPLS,GP_Gibbs
no signal,0/6,1/18,KFSQSVLYESRGKNSVA,MASTRES,QQYIRLPAS,Ctrl
-0.32,6/6,1/18,KLSGSQLYESRNKNSVA,HASTRES,QQYHRLPLS,GP_Gen
0.79,6/6,1/18,QVEDIKMKGNDFGDSVA,ETNARYA,QQYFRLPLA,En_Gibbs
no signal,0/6,0/18,KVSQSQLYESRNKNSVA,GASTRES,QQYHRLDLS,GP_HC
0.23,6/6,3/18,KSYISYLYESRNKNSVA,EASTRES,QQYHRLPLS,GP_HC
1.50,6/6,0/18,HMSMLTLQGMRHVNSVA,QMTTREN,QQYDRLPLS,En_Gen
1.38,6/6,0/18,KLTEMFQHTSKNKNNIA,ERSTREA,QQYHHLPLS,En_HC
no signal,0/6,0/18,KSSQSMLTQSRNKNSVA,WASTRES,QQYGRLMLS,Ctrl
0.20,6/6,3/18,TLYGLSMSMAKNKNNVA,EMSTREN,QQYDRLPLI,En_Gen
0.10,6/6,0/18,KTPQGVLYESRMKNSVA,GASVRES,QQYHRLPLS,GP_HC
-0.30,6/6,2/18,KVSQSGLYESRNKNSVA,NASTREQ,QQYHRLPLS,GP_Gen
-0.36,6/6,0/18,KLSQSVPYESRNKNSVA,EASTRMS,QQYHRLPLS,GP_Gen
0.24,6/6,0/18,KLSMSFLYESRNKNSVA,EASTRES,QQYHRLPLS,GP_Gen
-0.06,6/6,1/18,KFSQSVLYEDRNKNSVA,NASQREQ,QQYHRLPLS,GP_Gen
no signal,0/6,0/18,KCSQSVLYESRNKASVA,WASTRES,QQYHRLPLS,Ctrl
0.40,6/6,1/18,KFSQWVLYESRTKNSVA,NASTREA,QQYHRLPLS,GP_HC
0.48,6/6,1/18,KSPQSVLYESRNKNSVA,WASTRES,QQYHKLPLS,Ctrl
no signal,0/6,0/18,HSSGSVLYESRNKQSVA,WGSTRES,FQYHRLPLS,Ctrl
0.27,1/6,0/18,SIYDATGMESRNKNPIA,DVSTRPS,QQYDRLPLS,En_HC
0.88,6/6,2/18,KSSQSVVYDSRNKNSVA,QASTRES,QQDHRLPIS,Ctrl
-0.73,6/6,0/18,KLSQSELYESRNKNSVA,NASTREL,QQYHRLPLS,GP_Gen
0.72,6/6,0/18,KISQSVLYESRNKNSVA,NASTRES,QQYWRLLLS,Ctrl
0.54,6/6,1/18,KLSIMGLHQSIEKKSIA,ERSTREN,QQYHRLPLS,En_HC
1.10,6/6,1/18,KSSGSTLYESPNKNSVA,DASTRES,QQQHRLPLS,Ctrl

The 7 strongest on average among those seen in every replicate, once more:

| CDR-L1 | CDR-L2 | CDR-L3 | group | log10 Kd (nM), mean | detected | empty controls |
|---|---|---|---|---|---|---|
| KLSQSELYESRNKNSVA | NASTREL | QQYHRLPLS | GP_Gen | -0.73 | 6/6 | 0/18 |
| KLPQSWLYESRNKNSVA | NASQRES | QQYHRLPLS | GP_Gen | -0.42 | 6/6 | 2/18 |
| KLQQSFLYESRNKNSVA | NASTREE | QQYHRLPLS | GP_Gen | -0.39 | 6/6 | 0/18 |
| KLSQSVPYESRNKNSVA | EASTRMS | QQYHRLPLS | GP_Gen | -0.36 | 6/6 | 0/18 |
| KLSGSQLYESRNKNSVA | HASTRES | QQYHRLPLS | GP_Gen | -0.32 | 6/6 | 1/18 |
| KVSQSGLYESRNKNSVA | NASTREQ | QQYHRLPLS | GP_Gen | -0.30 | 6/6 | 2/18 |
| KVSQSWLYESRNKNSVA | NASTRES | QDYHRLPLS | GP_Gen | -0.23 | 6/6 | 2/18 |

Values reported by Li et al. 2023, doi:10.1038/s41467-023-39022-2 (FLAb copy).